Among the data in ChEMBL document CHEMBL1149656, “Respiratory syncytial virus fusion inhibitors. Part 6: an examination of the effect of structural variation of the benzimidazol-2-one heterocycle moiety” (Bioorg Med Chem Lett, 2007) are CC50 values, retold here.

The structures appear in SMILES notation. Only a part of the results on these compounds is given; other tests are left out.

The data set is described as follows: Cytotoxicity against human Hep2 cells. It counts as cell-based. Particulars: hep-2.

As a reminder, the CC50 is the concentration giving 50% cytotoxicity. A low value points to greater toxicity to the cells. `COC(=O)c1ccc(Cn2c(=O)c3ccccc3n(Cc3nc4ccccc4n3CCN(C)C)c2=O)cc1` yielded a 50% cytotoxic concentration (CC50) of 3.43 µM.
Then `CN(C)CCn1c(Cn2c(=O)n(Cc3ccc(C(=O)O)cc3)c(=O)c3ccccc32)nc2ccccc21`, with 19.9 µM.
